Assay results published in ChEMBL document CHEMBL1129677, “3 alpha-(4'-substituted phenyl)tropane-2 beta-carboxylic acid methyl esters: novel ligands with high affinity and selectivity at the dopamine transporter” (J Med Chem, 1996).

Amino acid sequences for entries named in this document (tags omitted).
UniProt P31652, whole entry: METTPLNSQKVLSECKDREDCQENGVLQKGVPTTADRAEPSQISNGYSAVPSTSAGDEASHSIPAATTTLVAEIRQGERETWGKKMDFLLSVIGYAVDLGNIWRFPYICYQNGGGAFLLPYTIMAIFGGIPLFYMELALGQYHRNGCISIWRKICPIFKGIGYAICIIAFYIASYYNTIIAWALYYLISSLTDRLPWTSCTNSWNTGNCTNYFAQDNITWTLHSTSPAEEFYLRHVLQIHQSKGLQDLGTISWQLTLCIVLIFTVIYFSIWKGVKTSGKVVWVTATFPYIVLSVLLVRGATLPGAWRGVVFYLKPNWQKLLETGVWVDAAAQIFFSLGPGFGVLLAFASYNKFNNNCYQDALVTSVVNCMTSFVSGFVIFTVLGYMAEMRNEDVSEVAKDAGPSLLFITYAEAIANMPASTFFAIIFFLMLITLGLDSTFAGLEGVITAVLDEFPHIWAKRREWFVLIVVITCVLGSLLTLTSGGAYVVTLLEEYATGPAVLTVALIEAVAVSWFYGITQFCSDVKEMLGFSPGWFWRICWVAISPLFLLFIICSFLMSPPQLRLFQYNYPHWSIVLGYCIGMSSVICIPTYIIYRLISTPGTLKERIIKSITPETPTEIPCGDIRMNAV

Biological target: Sodium-dependent serotonin transporter (Rattus norvegicus, UniProt P31652)
Test: Binding potency for Serotonin transporter using [3H]- paroxetine

COC(=O)[C@@H]1C2CC[C@H](C[C@@H]1c1ccccc1)N2C (stereo in doubt; 2e)
IC50: 5.7 µM
